Molecular target: Induced myeloid leukemia cell differentiation protein Mcl-1 (Homo sapiens, UniProt Q07820)

Amino acid sequences for entries named in this document (tags omitted).
UniProt Q07820, whole entry: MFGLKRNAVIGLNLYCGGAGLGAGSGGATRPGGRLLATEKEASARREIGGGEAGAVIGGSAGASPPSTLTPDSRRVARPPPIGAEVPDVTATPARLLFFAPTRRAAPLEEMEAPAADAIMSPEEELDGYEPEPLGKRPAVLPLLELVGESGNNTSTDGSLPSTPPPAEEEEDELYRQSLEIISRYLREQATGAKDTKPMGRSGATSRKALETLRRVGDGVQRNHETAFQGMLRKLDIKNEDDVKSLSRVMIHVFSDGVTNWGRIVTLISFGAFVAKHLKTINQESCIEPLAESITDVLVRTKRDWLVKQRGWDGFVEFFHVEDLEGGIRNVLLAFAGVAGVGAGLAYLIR

- Ki: 4.89 µM
SMILES: COc1c(SCC(=O)O)cc(NS(=O)(=O)c2ccc(-c3ccccc3)cc2)c2ccccc12
